Values quoted from earlier work in patent US7989589B2, “Compstatin analogs with improved activity” (The Trustees Of The University Of Pennsylvania, priority 2002, dated 2011).

Test system: complement activation
Conditions: in vivo animal models; cited from earlier work

5G1.1-scFv: humanized monoclonal anti-C5 antibody [Peptide 5G1.1-scFv]
suppression of complement activation: suppress complement activation in in vivo animal models
